According to PubChem BioAssay AID588814 (The Scripps Research Institute Molecular Screening Center, 2011):
This is a selection; strong and weak results do not stand in their true shares. The source made the active and inactive calls.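 How the source made its calls: active means activation above the run's mean compound activation plus 3 SD (cut at about 16% in these data); inactive means the rest.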

The chains behind the UniProt entries cited, without tags or fusion partners.
UniProt P11229, whole entry: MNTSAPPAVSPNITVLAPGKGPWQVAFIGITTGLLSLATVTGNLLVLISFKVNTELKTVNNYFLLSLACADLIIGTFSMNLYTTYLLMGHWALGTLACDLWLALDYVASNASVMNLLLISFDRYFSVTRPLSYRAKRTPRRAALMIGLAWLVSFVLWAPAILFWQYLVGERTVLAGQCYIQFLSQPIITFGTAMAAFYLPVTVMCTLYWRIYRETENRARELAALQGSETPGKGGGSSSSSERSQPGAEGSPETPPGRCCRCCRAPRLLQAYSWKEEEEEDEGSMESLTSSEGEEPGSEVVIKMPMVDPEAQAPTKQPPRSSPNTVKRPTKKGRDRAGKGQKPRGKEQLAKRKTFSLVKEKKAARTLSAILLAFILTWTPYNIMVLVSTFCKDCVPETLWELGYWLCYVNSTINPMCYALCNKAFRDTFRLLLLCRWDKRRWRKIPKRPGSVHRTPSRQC

What follows are molecules tested against Muscarinic acetylcholine receptor M1 (Homo sapiens) (UniProt P11229) (assay: human M1 muscarinic receptor agonists, primary screen, Fluo-8 calcium fluorescence, CHO-K1 cells, HTS (AID 588814;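 further: peak over basal fluorescence ratio within a 140 s kinetic read after compound addition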)). Conditions: CHO-K1 hM1, Fluo-8 calcium fluorescence, agonist mode; at 3 µM; active compounds read high; 0% DMSO, 100% acetylcholine EC100.

Row | Compound | activation
1 | CN1CCC(Nc2ccc(F)c(Cl)c2)CC1 | inactive: -5.58%
2 | CCOc1ncccc1C(=O)NCC1(N2CCOCC2)CCCCC1 | inactive: -5.97%
3 | CCCOc1ccc(C(=O)NCC2(N(C)C)CCCCC2)cc1 | inactive: -9.22%
4 | O=c1[nH]c2ccccc2n1C1CCN(C(c2cc3ccccc3o2)c2nnnn2C2CCCC2)CC1 (configuration not stated) | inactive: -0.14%
5 | O=C(O)C1(Nc2ccccc2)CCN(Cc2ccccc2)CC1 | inactive: -6.14%
6 | CC(C)(C)OC(=O)N1CCC(Nc2ccccc2)CC1 | inactive: -2.32%
7 | CCC(CO)(C(=O)OC1CN2CCC1CC2)c1ccccc1 (configuration not stated) | inactive: -6.07%
8 | COc1cccc(C(c2nnnn2C2CCCC2)N2CCC(n3c(=O)[nH]c4ccccc43)CC2)c1OC (configuration not stated) | inactive: -2.13%
9 | COc1cc(OC)cc(C(=O)NCC2(N3CCOCC3)CCCCC2)c1 | inactive: -3.77%
10 | COc1cccc(C(=O)N(c2cc(C)cc(C)c2)C2CCN(C(=O)OC(C)(C)C)CC2)c1 | inactive: -4.66%
11 | CN1CCC(Nc2ccc(Cl)cc2)CC1 | inactive: -0.24%
12 | O=c1[nH]c2ccccc2n1C1CCN(C(c2ccnc3ccccc23)c2nnnn2C2CCCCC2)CC1 (configuration not stated) | inactive: 5.05%
13 | COc1cc(OC)cc(C(=O)NCC2(N3CCCCC3)CCCCC2)c1 | inactive: -7.59%
14 | CCC(c1nnnn1C1CCCCC1)N1CCC(n2c(=O)[nH]c3ccccc32)CC1 (configuration not stated) | inactive: 6.63%
15 | CC(=O)N(c1ccccc1)C1CCNCC1 | inactive: -5.36%
16 | COc1cccc(C(c2nnnn2C2CCCCC2)N2CCC(n3c(=O)[nH]c4ccccc43)CC2)c1OC (configuration not stated) | inactive: 3.57%
17 | Cc1ccc(NC2(C#N)CCN(Cc3ccccc3)CC2)cc1 | inactive: -2.56%
18 | Fc1ccccc1NC1CCN(Cc2ccccc2)CC1 | inactive: -3.45%
19 | Cc1ccc(C(=O)NCC2(N3CCCCC3)CCCCC2)o1 | inactive: -5.27%
20 | CC(C)(C)n1nnnc1C(c1ccnc2ccccc12)N1CCC(n2c(=O)[nH]c3ccccc32)CC1 (configuration not stated) | inactive: 12.2%
21 | COc1ccc(C(c2nnnn2C2CCCCC2)N2CCC(n3c(=O)[nH]c4ccccc43)CC2)cc1 (configuration not stated) | inactive: -1.76%
22 | CCN1CCC(Nc2cccc(F)c2)CC1 | inactive: -11.3%

Row | Compound | activation
23 | Cc1ccccc1NC1(C#N)CCN(Cc2ccccc2)CC1 | inactive: -3.99%
24 | Cn1c(=O)[nH]cc(N(CCCl)CCCl)c1=O | inactive: -0.78%
25 | CN(C)c1ccc(C(=O)NCC2(N3CCCCC3)CCCCC2)cc1 | inactive: -4.17%
26 | O=C(NCC1(N2CCCCC2)CCCCC1)c1ccco1 | inactive: -5.17%
27 | CC(C)(C)OC(=O)N1CCC(N(C(=O)c2ccccc2)c2ccc(Cl)cc2)CC1 | inactive: -6.28%
28 | N#Cc1ccc(C(=O)NCC2(N3CCCCC3)CCCCC2)cc1 | inactive: -6.8%
29 | O=c1[nH]c2ccccc2n1C1CCN(C(c2ccccc2)c2nnnn2C2CCCC2)CC1 (configuration not stated) | inactive: 11.2%
30 | CCCN1CCC(Nc2cc(OC)cc(OC)c2)CC1 | inactive: -9.45%
31 | Cc1cc(N(CCCl)CCCl)ccc1C=O | inactive: -6.41%
32 | c1ccc(CN2CCC(Nc3ccccc3)CC2)cc1 | inactive: -4.95%
33 | CN(C)C1(CNC(=O)c2cccc(C#N)c2)CCCCC1 | inactive: -4.74%
34 | CC(C)(C)n1nnnc1C(c1cccc2ccccc12)N1CCC(n2c(=O)[nH]c3ccccc32)CC1 (configuration not stated) | inactive: 1.99%
35 | O=C(NCC1(N2CCOCC2)CCCCC1)c1cc(Br)ccc1Cl | inactive: -6.95%
36 | COc1cc(C(=O)NCC2(N3CCOCC3)CCCCC2)cc(OC)c1C | inactive: -4.96%
37 | CCCCn1nnnc1C(c1ccccc1)N1CCC(n2c(=O)[nH]c3ccccc32)CC1 (configuration not stated) | inactive: -6.11%
38 | O=c1[nH]c2ccccc2n1C1CCN(C(c2ccnc3ccccc23)c2nnnn2C2CCCC2)CC1 (configuration not stated) | inactive: -2.66%
39 | COc1ccc(C(=O)NCC2(N3CCOCC3)CCCCC2)cc1OC | inactive: 1.47%
40 | O=c1[nH]c2ccccc2n1C1CCN(C(c2cccs2)c2nnnn2C2CCCCC2)CC1 (configuration not stated) | inactive: 3.16%
41 | N/C(=N\O)c1c(N)no[n+]1[O-] | inactive: -2.67%
42 | COc1cccc(C(c2nnnn2C(C)(C)C)N2CCC(n3c(=O)[nH]c4ccccc43)CC2)c1OC (configuration not stated) | inactive: 9.02%
43 | CCOC(=O)N1CCC(Nc2ccc(C)cc2)CC1 | inactive: -10.3%
44 | CCCCn1nnnc1C(c1cccc(OC)c1OC)N1CCC(n2c(=O)[nH]c3ccccc32)CC1 (configuration not stated) | inactive: -0.43%

Row | Compound | activation
45 | O=c1[nH]c2ccccc2n1C1CCN(C(c2cccs2)c2nnnn2C2CCCC2)CC1 (configuration not stated) | inactive: -1.59%
46 | O=C(OC1CN2CCC1CC2)C1c2ccccc2C=Cc2ccccc21 (configuration not stated) | inactive: -13.4%
47 | CN(C)c1cccc(C(=O)NCC2(N3CCCCC3)CCCCC2)c1 | inactive: -7.95%
48 | COc1ccc(CN(CCCl)CCCl)cc1Cl | inactive: -7.2%
49 | CC(C)c1ccc(NC2CCN(C(=O)OC(C)(C)C)CC2)cc1 | inactive: -5.88%
50 | CCCCn1nnnc1C(c1ccccc1OC(F)(F)F)N1CCC(n2c(=O)[nH]c3ccccc32)CC1 (configuration not stated) | inactive: -0.97%
51 | CCCCn1nnnc1C(c1ccnc2ccccc12)N1CCC(n2c(=O)[nH]c3ccccc32)CC1 (configuration not stated) | inactive: -9.48%
52 | CCC(c1nnnn1C(C)(C)C)N1CCC(n2c(=O)[nH]c3ccccc32)CC1 (configuration not stated) | inactive: -3.52%
53 | O=C(NCC1(N2CCOCC2)CCCCC1)c1cc(F)c(F)cc1Cl | inactive: -6.04%
54 | COc1cc(OC)c(C(=O)NCC2(N(C)C)CCCCC2)cc1OC | inactive: -6.56%
55 | O=C(NCC1(N2CCCCC2)CCCCC1)c1cncc(Br)c1 | inactive: -7.44%
56 | CN1CCC(Nc2cccc(F)c2)CC1 | inactive: 1.52%
57 | CCCOc1ccc(C(=O)NCC2(N(C)C)CCCCC2)cc1OC | inactive: -6.41%
58 | Cc1ccc(C(=O)NCC2(N(C)C)CCCCC2)o1 | inactive: -4.38%
59 | COc1ccc(C(c2nnnn2C2CCCC2)N2CCC(n3c(=O)[nH]c4ccccc43)CC2)cc1 (configuration not stated) | inactive: 0.78%
60 | O=C(NCC1(N2CCCCC2)CCCCC1)c1ccc(OC(F)F)cc1 | inactive: -9.05%
61 | CC(C)(C)n1nnnc1C(c1ccccc1OC(F)(F)F)N1CCC(n2c(=O)[nH]c3ccccc32)CC1 (configuration not stated) | inactive: 5.77%
62 | CSc1ccc(C(=O)NCC2(N3CCOCC3)CCCCC2)cc1 | inactive: -5.79%
63 | O=C(NCC1(N2CCCCC2)CCCCC1)c1cccc([N+](=O)[O-])c1 | inactive: -5.3%
64 | N#CC1(Nc2ccccc2)CCN(CCc2ccccc2)CC1 | inactive: -3.69%
65 | O=c1[nH]c2ccccc2n1C1CCN(C(c2ccccc2OC(F)(F)F)c2nnnn2C2CCCC2)CC1 (configuration not stated) | inactive: -2.65%
66 | CCN1CCC(Nc2ccc(Cl)cc2)CC1 | inactive: -2.33%

Row | Compound | activation
67 | O=C(NCC1(N2CCCCC2)CCCCC1)c1cccc(C(F)(F)F)c1 | inactive: -5.97%
68 | CCCCn1nnnc1C(c1cccc2ccccc12)N1CCC(n2c(=O)[nH]c3ccccc32)CC1 (configuration not stated) | inactive: 1.22%
69 | CN1CCN(CCOC(=O)C(O)(c2ccccc2)c2ccccc2)CC1 | inactive: -10.2%
70 | COc1ccc(NC2CCN(C(=O)OC(C)(C)C)CC2)cc1 | inactive: -6.95%
71 | CC(C)c1ccc(C(=O)NCC2(N3CCOCC3)CCCCC2)cc1 | inactive: -6.17%
72 | COc1cc(C(=O)NCC2(N3CCCCC3)CCCCC2)ccc1OC(F)F | inactive: -11.7%
73 | O=C(NCC1(N2CCOCC2)CCCCC1)c1cc(=O)[nH]c2ccccc12 | inactive: -4.25%
74 | CCOc1ccc(C)cc1CN(CCCl)CCCl | inactive: -2.72%
75 | O=C1CCN(Cc2ccccc2)CC1 | inactive: -11.7%
76 | CC(C)(C)n1nnnc1C(c1ccccc1)N1CCC(n2c(=O)[nH]c3ccccc32)CC1 (configuration not stated) | inactive: 15.1%
77 | COc1ccc(NC2CCN(CCc3ccccc3)CC2)c(OC)c1 | inactive: -13%
78 | CCOC(=O)N1CCC(Nc2ccc(F)cc2)CC1 | inactive: -5.3%
79 | O=C(NCC1(N2CCCCC2)CCCCC1)c1ccc(F)cc1 | inactive: -8.66%
80 | O=P1(N(CCCl)CCCl)SCCCS1 | inactive: -4.34%
81 | CCCCn1nnnc1C(c1cc2ccccc2o1)N1CCC(n2c(=O)[nH]c3ccccc32)CC1 (configuration not stated) | inactive: 2.14%
82 | CCCCOc1ccc(C(=O)NCC2(N3CCOCC3)CCCCC2)cc1 | inactive: -5.14%
83 | O=c1[nH]c2ccccc2n1C1CCN(C(c2ccccc2)c2nnnn2C2CCCCC2)CC1 (configuration not stated) | inactive: 5.03%
84 | O=c1[nH]c2ccccc2n1C1CCN(C(c2cccc3ccccc23)c2nnnn2C2CCCC2)CC1 (configuration not stated) | inactive: 2.34%
85 | COc1cc(C(=O)NCC2(N(C)C)CCCCC2)ccc1OC(F)F | inactive: -5.84%
86 | CCOC(=O)N1CCC(Nc2cccc(C)c2)CC1 | inactive: -5.61%
87 | CCCCn1nnnc1C(c1cccs1)N1CCC(n2c(=O)[nH]c3ccccc32)CC1 (configuration not stated) | inactive: 1.52%
88 | CCCCn1nnnc1C(CC)N1CCC(n2c(=O)[nH]c3ccccc32)CC1 (configuration not stated) | inactive: -2.17%

Row | Compound | activation
89 | O=C(NCC1(N2CCCCC2)CCCCC1)c1cccs1 | inactive: -3.32%
90 | O=C(NCC1(N2CCCCC2)CCCCC1)c1ccc(=O)[nH]c1 | inactive: -3.46%
91 | CCC(c1nnnn1C1CCCC1)N1CCC(n2c(=O)[nH]c3ccccc32)CC1 (configuration not stated) | inactive: -1.38%
92 | COc1ccc(C(=O)NCC2(N3CCCCC3)CCCCC2)c(OC)c1OC | inactive: -3.52%
93 | CC(C)(C)OC(=O)N1CCC(N(C(=O)c2ccccc2)c2ccc(F)cc2)CC1 | inactive: -5.53%
94 | COc1ccc(C(=O)NCC2(N3CCCCC3)CCCCC2)cc1 | inactive: -9.95%
95 | Cc1cccc(NC2(C#N)CCN(Cc3ccccc3)CC2)c1 | inactive: -2.25%
96 | CSc1ccccc1C(=O)NCC1(N2CCCCC2)CCCCC1 | inactive: -10.6%
97 | O=C(NCC1(N2CCOCC2)CCCCC1)c1cc2ccccc2o1 | inactive: -5.29%
98 | Cc1cc(C)cc(N(C(=O)c2ccccc2)C2CCN(C(=O)OC(C)(C)C)CC2)c1 | inactive: -5.55%
99 | O=c1[nH]c2ccccc2n1C1CCN(C(c2ccccc2OC(F)(F)F)c2nnnn2C2CCCCC2)CC1 (configuration not stated) | inactive: -1.59%
100 | O=C(NCC1(N2CCCCC2)CCCCC1)c1ccc(Cl)nc1 | inactive: -7.05%
101 | CCCCn1nnnc1C(c1ccc(OC)cc1)N1CCC(n2c(=O)[nH]c3ccccc32)CC1 (configuration not stated) | active: 65%
102 | CCOC(=O)N1CCC(Nc2ccc(OC)cc2)CC1 | inactive: -6.39%
103 | COc1ccc(Cl)cc1C(=O)NCC1(N2CCOCC2)CCCCC1 | inactive: -7.13%
104 | O=C(OC1CN2CCC1CC2)C1c2ccccc2Oc2ccccc21 (configuration not stated) | inactive: -8.39%
105 | O=c1[nH]c2ccccc2n1C1CCN(C(c2cc3ccccc3o2)c2nnnn2C2CCCCC2)CC1 (configuration not stated) | inactive: 1.25%
106 | N#CC1(Nc2ccccc2)CCN(Cc2ccccc2)CC1 | inactive: -1.53%
107 | O=C(NCC1(N2CCCCC2)CCCCC1)c1ccc(Cl)s1 | inactive: -7.82%
